Test results reported in patent US10350264B2, “Compositions and methods for modulating NCOA4-mediated autophagic targeting of ferritin” (Dana-Farber Cancer Institute, Inc., priority 2014, dated 2019).

Target: T1, NCOA4(aa 383-522)-GST (Homo sapiens, UniProt Q13772)
T1 construct: NCOA4(aa 383-522)-GST or GST alone was incubated with; made in house; host or cells: E. coli BL21 (DE3)
T1 sequence (Q13772 383-522): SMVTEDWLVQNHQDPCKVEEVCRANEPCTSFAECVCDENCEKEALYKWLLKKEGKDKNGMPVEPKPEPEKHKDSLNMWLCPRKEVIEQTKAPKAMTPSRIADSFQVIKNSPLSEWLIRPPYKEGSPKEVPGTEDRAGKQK
Experiment: GST pull-down assay of WT and point mutant FTH1 using NCOA4(aa 383-522)-GST
Assay type: binding
Settings: 40 μg FTH1, InstantBlue stain; FIGS. 23A-D
Method: Wild-type (WT) and point mutants of FTH1 were produced recombinantly in E. coli and purified by chromatographic techniques including size exclusion chromatography to confirm oligomeric ferritin cage assembly (elution at 440 kDa size on Superose 6 column). In a GST pull-down assay, NCOA4(aa 383-522)-GST or GST alone was incubated with 10 μl of a 50% (v/v) slurry of glutathione Sepharose 4B beads (GE Healthcare Lifesciences, 17-0756-01) for 30 minutes at 4° C. Beads were washed thoroughly with 150 mM NaCl, 20 mM Tris (pH 7.4), 2 mM dithiothreitol (DTT), 0.5% (w/v) Nonidet P-40, leaving 50-100 μg of GST-fusion protein bound to the beads. Beads were then mixed with 40 μg of recombinant human WT or point mutant FTH1 produced in Rosetta E. coli (EMD Millipore, 70953-3). The assay mix was incubated for 30 minutes at 4° C., and beads were washed three times with 1 ml wash buffer. Proteins were eluted with SDS sample buffer and analyzed by 4-20% gradient SDS-PAGE. InstantBlue Stain (Expedeon: catalog #ISB1L) was used to visualize GST-NCOA4 bands and FTH1 bands. […] The interaction would very likely also involve the loop structure (G78-K88) adjacent to the R23 site of FTH1.

FTH1 WT: recombinant human wild-type ferritin heavy chain (SEQ ID NO: 6), produced in E. coli
binding of FTH1 (WT or point mutant) to NCOA4(383-522)-GST: strongly
